Hits are enriched below; roughly 4.2% of the tested compounds scored in any of these assays.
MC4R barr agon = agonists of human melanocortin 4 receptor (MC4R) beta-arrestin; P32245; U2OS MC4R beta-arrestin complementation, luminescence; percent of melanotan II response, DMSO zero; activation, % at 8.9 µM; hit rate 0.98% among 360,000; AID 540308;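 active = activation above a per-plate cutoff, the mean activation of sample wells on that plate plus 3 SD, cut at about 8% in these data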
HDAC3 inh = blocks human histone deacetylase 3; AID 2718; recombinant HDAC3, fluorogenic peptide/trypsin coupled, fluorescence; inhibition, % at 8.3 µM; hit rate 0.15% among 320,000; in the data active = inhibition above about 26%, passing the limit was not always enough; inconclusive = no clear call, values can overlap the other calls
ALR inh = inhibitors of human sulfhydryl oxidase ALR; P55789; purified ALR, DTT oxidation, H2O2 HRP-luminol luminescence; inhibition, % (test concentration not listed); hit rate 3.8% among 290,000; AID 485317;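 active = mean and each replicate at 75% or more; inconclusive = only one of the two met; inactive = neither met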;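 also: stock transfer was 7.5 nL into about 7.5 µL; 0% = neutral wells and 100% = wells with inactivated enzyme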
NALP1 inh = NALP1 inhibition | inhibition, % at 10 µM | S. cerevisiae NALP1/ASC/caspase-1 growth, X-gal OD620, 72 h | hit rate 0.61% among 280,000; in the data active = inhibition mostly above about 24%, no sharp cut-off; inactive = mostly below about 32%
Yeast UUG start = modulators of start codon recognition fidelity in yeast; AID 602363; activity score, % at 18.7 µM; S. cerevisiae UUG-firefly luciferase reporter, luminescence/redox ratio; actives 0.13% (n = 350,000);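 active = replicate mean at a twofold rise or more, about +100% in these data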;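 note: firefly luciferase made from a UUG start codon reports start codon fidelity; reporter light over untreated wells divided by growth signal over untreated wells; some hits fall short of that in this replicate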
MC4R antagonist = blocks human MC4R cAMP signaling. AID 540295. hit rate 0.48% among 360,000. inhibition, % at 6.5 µM. MC4R-expressing cells, MTII-stimulated cAMP, LANCE TR-FRET. P32245;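 active = inhibition above its plate's cutoff, the mean of tested wells on that plate plus 3 SD, cut at about 29% in these data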;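 also: 0% = Melanotan II alone and 100% = Melanotan II plus saturating MCL0020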
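Assay system: human MC4R-expressing U2OS cells; reagent: Melanotan II stimulation of cells; dosing: 6.5 µM single dose; timing: compound 30 min, challenge 1 h, detection 1 h; signal: TR-FRET cAMP assay; replicates: one well per compound, no replicates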
Starred values were filed as active, the others as inactive; ? = inconclusive; . = no result given.

Letters: A = MC4R barr agon; B = HDAC3 inh; C = ALR inh; D = NALP1 inh; E = Yeast UUG start; F = MC4R antagonist
O=C(CCN1CCCCCC1)c1ccccc1
  A: -1.1; B: -0.7; C: 90.7*; D: 4.6; E: -19.9; F: 10.7

O=C(CCN1CCC(c2ccccc2)C1)c1ccccc1 (stereo unspecified)
  A: -0.9; B: 3.6; C: 9.7; D: 22.9*; E: -17.1; F: 21.7

O=C(CCN1CCCC1)c1cccs1
  A: -0.8; B: 3.0; C: 98.5*; D: 20.0; E: -6.8; F: 17.1

CCOc1ccc(C(=O)CCN2CCCCC2)cc1
  A: -1.0; B: 4.9; C: 3.2; D: 9.7; E: .; F: 28.1

O=C(CCN1CCC(c2ccccc2)C1)c1cccs1 (stereo unspecified)
  A: -0.6; B: -8.6; C: 45.8; D: 0.2; E: .; F: 13.4

O=C(CCSc1ccc(Cl)cc1)c1cccs1
  A: 1.9; B: 1.6; C: 46.4; D: 31.3; E: .; F: 9.3

O=C(CCc1ccc(CCC(=O)c2cccs2)s1)c1cccs1
  A: -1.5; B: 0.0; C: 92.4*; D: 13.8; E: -25.6; F: 12.8

C[C@H](NC(=O)C[C@H]1C=C[C@H](NC(=O)C2CCOCC2)[C@H](CO)O1)c1ccccc1
  A: .; B: .; C: .; D: .; E: -12.5; F: .

Cc1nc(SCc2ccc(C(=O)O)cc2)nc2c1CCCC2
  A: 0.7; B: 8.7; C: 95.9*; D: -0.7; E: .; F: 11.5

C[C@@H]1CN([C@H](C)CO)C(=O)c2cc(C#CCN(C)C)cnc2O[C@H]1CN(C)C(=O)c1cccc(F)c1
  A: .; B: .; C: .; D: .; E: 3.0; F: .

CCn1c(NCc2cc(OC)c(OC)c(OC)c2)nc2ccccc21
  A: -2.8; B: 0.6; C: 96.7*; D: 11.7; E: -9.2; F: 3.9

CCOc1ccc(CNc2nc3ccccc3n2CCN2CCOCC2)cc1
  A: 0.4; B: 1.0; C: 97.2*; D: 23.8; E: 5.0; F: 10.3

CCN(Cc1nc2ccccc2n1C)c1ccccc1
  A: -1.1; B: -1.4; C: 98.5*; D: 19.5; E: -10.9; F: -5.5

CCn1c(NCc2ccc(N(C)C)cc2)nc2ccccc21
  A: -0.3; B: 7.1; C: 49.9; D: .; E: -20.3; F: 0.3

CCN(CC)c1ccc(CNc2nc3ccccc3n2C)cc1
  A: 0.0; B: -5.6; C: 98.0*; D: .; E: .; F: 18.4

CNC[C@H]1OCCCC[C@H](C)Oc2ccc(NC(=O)NC3CCCCC3)cc2C(=O)N([C@H](C)CO)C[C@H]1C
  A: .; B: .; C: .; D: .; E: 6.8; F: .

C[C@@H]1CN([C@@H](C)CO)C(=O)c2cc(NC(=O)Cc3ccccc3)ccc2O[C@@H](C)CCCCO[C@H]1CN(C)CC1CCCCC1
  A: .; B: .; C: .; D: .; E: 12.9; F: .

CCCCn1nnnc1NCc1ccc(N(CC)CC)cc1
  A: -0.1; B: 0.3; C: 99.0*; D: 9.3; E: 1.7; F: -1.0

CCN(CC)c1ccc(CNc2nc3ccccc3n2CCN2CCCCC2)cc1
  A: -3.6; B: -7.0; C: 98.5*; D: 10.5; E: .; F: 3.1

Cn1c(CNc2nc3ccccc3n2CCN2CCCCC2)nc2ccccc21
  A: -0.1; B: 1.3; C: -7.5; D: 20.9; E: -8.8; F: -0.1

COc1ccc(CNc2nc3ccccc3n2CCN2CCCCC2)cc1
  A: 1.2; B: -9.0; C: 96.8*; D: 17.8; E: -15.9; F: 13.3

CC(C)n1c(CN(C)c2ccccc2)nc2ccccc21
  A: -0.6; B: -0.8; C: 97.3*; D: -6.8; E: -12.4; F: 8.9

CC(C)n1c(/C=C/c2ccccc2)nc2ccccc21
  A: -1.2; B: -26.7; C: -1.0; D: 30.4; E: -14.5; F: 2.8

CCNC(=O)C[C@H]1CC[C@@H]2[C@H](COc3ccc(NC(=O)C4CCCCC4)cc3C(=O)N2C)O1
  A: .; B: .; C: .; D: .; E: 7.5; F: .

O=C(NCC[C@H]1CC[C@@H](NS(=O)(=O)c2cccc(F)c2)[C@H](CO)O1)C1CCC1
  A: .; B: .; C: .; D: .; E: 34.0; F: .

Cc1ccccc1-c1ccc(Nc2ccc(N3CCOCC3)cc2)nn1
  A: -1.8; B: 1.4; C: 93.3*; D: 21.3; E: .; F: 5.5

O=S1(=O)N=C(Nc2ccc(N3CCOCC3)cc2)c2ccccc21
  A: 0.9; B: ?; C: 0.5; D: 3.0; E: -15.7; F: 11.4

CNC(=O)c1ccccc1S(=O)(=O)c1ccccc1C#N
  A: -1.3; B: 4.9; C: 61.7; D: 28.0*; E: -0.5; F: 3.0

CO[C@@H]1CN(C)C(=O)c2cc(NC(=O)C3CCOCC3)ccc2OC[C@@H](C)N(S(=O)(=O)c2ccc(C)cc2)C[C@H]1C
  A: .; B: .; C: .; D: .; E: 2.2; F: .

Cc1cc(Cl)c(OCCOCCN2CCC(C)CC2)c(Br)c1
  A: -2.2; B: -2.0; C: -0.7; D: 51.6*; E: .; F: 0.8

Cc1cc(Br)ccc1OCCn1ccnc1
  A: -2.2; B: 4.6; C: -38.2; D: 55.2*; E: -29.1; F: -0.6

CCC(C)c1ccc(OCCn2ccnc2)cc1 (stereo unspecified)
  A: -1.2; B: -2.1; C: -6.9; D: 53.4*; E: 0.4; F: -2.1

Cc1cc(Br)ccc1OCCCCN1CCC(C)CC1
  A: 2.2; B: 0.2; C: -1.3; D: 56.3*; E: .; F: 7.3

O=C(Nc1ccccc1F)N[C@@H]1CC[C@H](CCNS(=O)(=O)c2ccccc2)O[C@H]1CO
  A: .; B: .; C: .; D: .; E: 7.8; F: .

Ordered by the number under HDAC3 inh (high to low): three from the list above
Letters: A = MC4R barr agon; B = HDAC3 inh; C = ALR inh; D = NALP1 inh; E = Yeast UUG start; F = MC4R antagonist
O=C(CCN1CCCC1)c1cccs1
  A: -0.8; B: 3.0; C: 98.5*; D: 20.0; E: -6.8; F: 17.1

O=C(CCN1CCCCCC1)c1ccccc1
  A: -1.1; B: -0.7; C: 90.7*; D: 4.6; E: -19.9; F: 10.7

CCC(C)c1ccc(OCCn2ccnc2)cc1 (stereo unspecified)
  A: -1.2; B: -2.1; C: -6.9; D: 53.4*; E: 0.4; F: -2.1
